{
  "source": "patent US20140377240A1",
  "about": "“METHODS AND COMPOSITIONS FOR EXPANDING IMMUNOSUPPRESSIVE T REGULATORY CELLS IN VITRO AND USES THEREOF” (Northeastern University, priority 2012, published 2014)",
  "test_system": "Mouse natural Treg cells",
  "assay": "Treg cell proliferation in 3-day culture with anti-CD3/anti-CD28 and IL-2",
  "assay_type": "cell-based",
  "conditions": "IL-2 at 5-100 U/ml, 3 days, 1% or 21% O2",
  "description": "Mouse natural Treg cells were isolated from the spleen and lymph nodes according to methods known in the art. Briefly, the methods were based on using monoclonal antibodies against cell surface proteins which are predominantly expressed on Treg cells. Using fluorochrome-conjugated antibodies, Treg cells were labeled and isolated by magnetic cell sorting. The cells were labeled with anti-HSA (CD24) and anti-CD8 mAbs using methods known in the art, and CD24+ and CD8− cells were depleted using magnetically assisted cell sorting (“MACS”) to enrich for CD4+ cells. CD25+ cells were further purified from this fraction by positive selection. The purity of CD4+CD25+ cells was >93%, with greater than 95% of cells CD4+CD25+FoxP3+.\nPurified CD4+CD25+ cells (1×10^5 cells/well) were stimulated with immobilized anti-CD3 and anti-CD28 mAbs and cultured under 1% or 21% O2 for 3 days. Culture media: RPMI1640 (Invitrogen) supplemented with 10% fetal calf serum (Hyclone); culturing condition: 37° C., 5% CO2 using a NAPCO7000 incubator capable of controlling oxygen concentration; humidity: >95%, cell density: 5×10^5 cells/ml. Normoxic cell culture conditions were 5% C O2, 95% air (21% oxygen). For hypoxic culture conditions, ambient air was diluted with pure nitrogen to reduce the O2 concentration to 1%. Human recombinant IL-2 was added to the culture at 5-100 U/ml for the entire culture period.",
  "data": [
    {"substance": "IL-2: Human recombinant IL-2 added to the culture at 5-100 U/ml", "values": [
      {"measurement": "Treg cell proliferation", "result": "dependent on the dose of IL-2"}
    ]}
  ]
}
